Source: patent US9243019B2 (priority 2013, dated 2016)

System: acute cerebral ischemia
Details: positive control group, 24 h, TTC

**Q.** How did the cerebral infarction area turn out when `COCCOC(=O)C1=C(C)NC(C)=C(C(=O)OC(C)C)C1c1cccc([N+](=O)[O-])c1` (stereo not shown) [nimodipine] was run?
**A.** 15.4%
